Source: patent US7632933B2, “Corticotropin releasing factor 2 receptor agonists” (priority 2002, dated 2009)

Tests used:
CRF1R = biological target: T1, CRF1R (Homo sapiens, UniProt P34998); assay: CRF1R agonist activity (EC50 and Emax), called comparative CRF binding; format: cell-based; conditions: CRF1R EC50 (nM), CRF1R
T1 sequence (P34998 24-415): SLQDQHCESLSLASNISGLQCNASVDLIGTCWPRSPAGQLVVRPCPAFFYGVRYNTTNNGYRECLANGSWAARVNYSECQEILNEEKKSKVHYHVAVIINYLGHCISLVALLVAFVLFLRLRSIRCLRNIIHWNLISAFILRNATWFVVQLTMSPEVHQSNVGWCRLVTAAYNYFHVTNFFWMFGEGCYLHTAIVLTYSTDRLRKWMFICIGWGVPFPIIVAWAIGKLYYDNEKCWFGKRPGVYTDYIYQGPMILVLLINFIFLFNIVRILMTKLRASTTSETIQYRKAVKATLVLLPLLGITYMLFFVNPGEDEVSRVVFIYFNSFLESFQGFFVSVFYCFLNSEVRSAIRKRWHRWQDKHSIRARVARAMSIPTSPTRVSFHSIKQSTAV
Method in brief: (§1)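 CRE-reporter or direct cAMP, cells w/ single CRFR subtype (recombinant or CRF1R-disabled), peptide vs vehicle; background from other CRFR type subtracted.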

CRF2R = biological target: T2, CRF2R (Homo sapiens, UniProt Q13324); assay: CRF2R agonist activity (EC50 and Emax), called comparative CRF binding; format: cell-based; conditions: CRF2R EC50 (nM), CRF2R
T2 sequence (Q13324 1-411): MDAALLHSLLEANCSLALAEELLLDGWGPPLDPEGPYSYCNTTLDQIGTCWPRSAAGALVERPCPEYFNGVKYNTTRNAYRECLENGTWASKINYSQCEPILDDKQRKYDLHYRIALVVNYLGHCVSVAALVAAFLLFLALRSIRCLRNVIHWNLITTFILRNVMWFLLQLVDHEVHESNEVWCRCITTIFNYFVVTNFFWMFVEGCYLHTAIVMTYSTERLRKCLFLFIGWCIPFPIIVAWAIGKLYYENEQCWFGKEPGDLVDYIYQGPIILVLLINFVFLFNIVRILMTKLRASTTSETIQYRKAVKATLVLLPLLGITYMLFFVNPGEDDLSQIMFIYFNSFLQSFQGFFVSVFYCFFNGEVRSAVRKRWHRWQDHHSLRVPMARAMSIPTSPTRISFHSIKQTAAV
Method in brief: as §1

Structure (SMILES)	EC50 (CRF1R) [nM]	EC50 (CRF2R) [nM]
CC[C@H](C)[C@H](NC(=O)[C@@H](NC(=O)[C@H](CC(=O)O)NC(=O)[C@H](CC(C)C)NC(=O)[C@H](CC(C)C)NC(=O)[C@H](CC(C)C)NC(=O)[C@H](CCCNC(=N)N)NC(=O)[C@H](CC(N)=O)NC(=O)[C@H](CC(N)=O)NC(=O)[C@H](C)NC(=O)[C@H](C)NC(=O)[C@H](CCC(N)=O)NC(=O)[C@H](CCC(N)=O)NC(=O)[C@H](CCCCN)NC(=O)[C@H](CCC(=O)O)NC(=O)[C@H](CCCCN)NC(=O)[C@H](CCC(=O)O)NC(=O)[C@H](CCC(N)=O)NC(=O)[C@H](CCCCN)NC(=O)[C@H](CCC(=O)O)NC(=O)[C@@H](NC(=O)[C@H](CCC(=O)O)NC(=O)[C@@H](NC(=O)[C@H](CCSC)NC(=O)[C@H](CCCCN)NC(=O)[C@H](CCCNC(=N)N)NC(=O)[C@H](CC(C)C)NC(=O)[C@H](CC(C)C)NC(=O)[C@H](Cc1ccc(O)cc1)NC(=O)[C@H](CC(=O)O)NC(=O)[C@@H]1CCCN1C(=O)[C@H](CC(C)C)NC(=O)[C@H](CC(=O)O)NC(=O)[C@@H](NC(=O)[C@H](CO)NC(=O)[C@@H](NC(=O)[C@@H]1CCCN1C(=O)[C@@H]1CCCN1C(=O)CNC(=O)[C@@H]1CCC(=O)N1)[C@@H](C)CC)[C@@H](C)CC)[C@@H](C)CC)[C@@H](C)CC)[C@@H](C)O)C(N)=O [compound 54]	≥ 1000	≥ 100
CC[C@H](C)[C@H](NC(=O)[C@@H](NC(=O)[C@H](CC(=O)O)NC(=O)[C@H](CC(C)C)NC(=O)[C@H](CC(C)C)NC(=O)[C@H](CC(C)C)NC(=O)[C@H](CCCNC(=N)N)NC(=O)[C@H](CC(N)=O)NC(=O)[C@H](CC(N)=O)NC(=O)[C@H](C)NC(=O)[C@H](C)NC(=O)[C@H](CCC(N)=O)NC(=O)[C@H](CCC(N)=O)NC(=O)[C@H](CCCCN)NC(=O)[C@H](CCC(=O)O)NC(=O)[C@H](CCCCN)NC(=O)[C@H](CCC(=O)O)NC(=O)[C@H](CCC(N)=O)NC(=O)[C@H](CCCCN)NC(=O)[C@H](CCC(=O)O)NC(=O)[C@@H](NC(=O)[C@H](CCC(=O)O)NC(=O)[C@@H](NC(=O)[C@H](CCSC)NC(=O)[C@H](CCCCN)NC(=O)[C@H](CCCNC(=N)N)NC(=O)[C@H](CC(C)C)NC(=O)[C@H](CC(C)C)NC(=O)CNC(=O)[C@@H](NC(=O)[C@@H]1CCCN1C(=O)[C@H](CC(C)C)NC(=O)[C@H](CC(=O)O)NC(=O)[C@@H](NC(=O)[C@H](CO)NC(=O)[C@@H](NC(=O)[C@@H]1CCCN1C(=O)[C@@H]1CCCN1C(=O)CNC(=O)[C@@H]1CCC(=O)N1)[C@@H](C)CC)[C@@H](C)CC)[C@@H](C)CC)[C@@H](C)CC)[C@@H](C)CC)[C@@H](C)O)C(N)=O [compound 75]	> 100	> 100
CC[C@H](C)[C@H](NC(=O)[C@@H](NC(=O)[C@H](CC(=O)O)NC(=O)[C@H](CC(C)C)NC(=O)[C@H](CC(C)C)NC(=O)[C@H](CC(C)C)NC(=O)[C@H](CCCNC(=N)N)NC(=O)[C@H](CC(N)=O)NC(=O)[C@H](CC(N)=O)NC(=O)[C@H](C)NC(=O)[C@H](C)NC(=O)[C@H](CCC(N)=O)NC(=O)[C@H](CCC(N)=O)NC(=O)[C@H](CCCCN)NC(=O)[C@H](CCC(=O)O)NC(=O)[C@H](CCCCN)NC(=O)[C@H](CCC(=O)O)NC(=O)[C@H](CCC(N)=O)NC(=O)[C@H](CCCCN)NC(=O)[C@H](CCC(=O)O)NC(=O)[C@@H](NC(=O)[C@H](CCC(=O)O)NC(=O)[C@@H](NC(=O)[C@@H](NC(=O)[C@H](CCCCN)NC(=O)[C@H](CCCNC(=N)N)NC(=O)[C@H](CC(C)C)NC(=O)[C@H](CC(C)C)NC(=O)[C@H](CCC(N)=O)NC(=O)[C@H](Cc1ccc(O)cc1)NC(=O)[C@@H]1CCCN1C(=O)[C@H](CC(C)C)NC(=O)[C@H](CC(=O)O)NC(=O)[C@@H](NC(=O)[C@H](CO)NC(=O)[C@@H](NC(=O)[C@@H]1CCCN1C(=O)[C@@H]1CCCN1C(=O)CNC(=O)[C@@H]1CCC(=O)N1)[C@@H](C)CC)[C@@H](C)CC)C(C)C)[C@@H](C)CC)[C@@H](C)CC)[C@@H](C)O)C(N)=O [compound 283]	635	10.6
CC[C@H](C)[C@H](NC(=O)[C@@H](NC(=O)[C@H](CC(=O)O)NC(=O)[C@H](CC(C)C)NC(=O)[C@H](CC(C)C)NC(=O)[C@H](CC(C)C)NC(=O)[C@H](CCCNC(=N)N)NC(=O)[C@H](CC(N)=O)NC(=O)[C@H](CC(N)=O)NC(=O)[C@H](C)NC(=O)[C@H](C)NC(=O)[C@H](CCC(N)=O)NC(=O)[C@H](CCC(N)=O)NC(=O)[C@H](CCCCN)NC(=O)[C@H](CCC(=O)O)NC(=O)[C@H](CCCCN)NC(=O)[C@H](CCC(=O)O)NC(=O)[C@H](CCC(N)=O)NC(=O)[C@H](CCCCN)NC(=O)[C@H](CCC(=O)O)NC(=O)[C@@H](NC(=O)[C@H](CCC(=O)O)NC(=O)[C@@H](NC(=O)[C@H](CCSC)NC(=O)[C@H](CCCCN)NC(=O)[C@H](CCCNC(=N)N)NC(=O)[C@H](CC(C)C)NC(=O)[C@H](CC(C)C)NC(=O)[C@H](CC(=O)O)NC(=O)[C@@H](NC(=O)[C@@H]1CCCN1C(=O)[C@H](CC(C)C)NC(=O)[C@H](CC(=O)O)NC(=O)[C@@H](NC(=O)[C@H](CO)NC(=O)[C@@H](NC(=O)[C@@H]1CCCN1C(=O)[C@@H]1CCCN1C(=O)CNC(=O)[C@@H]1CCC(=O)N1)[C@@H](C)CC)[C@@H](C)CC)[C@@H](C)O)[C@@H](C)CC)[C@@H](C)CC)[C@@H](C)O)C(N)=O [compound 49]	> 1000	> 100
CC[C@H](C)[C@H](NC(=O)[C@@H](NC(=O)[C@H](CC(=O)O)NC(=O)[C@H](CC(C)C)NC(=O)[C@H](CC(C)C)NC(=O)[C@H](CC(C)C)NC(=O)[C@H](CCCNC(=N)N)NC(=O)[C@H](CC(N)=O)NC(=O)[C@H](CC(N)=O)NC(=O)[C@H](C)NC(=O)[C@H](C)NC(=O)[C@H](CCC(N)=O)NC(=O)[C@H](CCC(N)=O)NC(=O)[C@H](CCCCN)NC(=O)[C@H](CCC(=O)O)NC(=O)[C@H](CCCCN)NC(=O)[C@H](CCC(=O)O)NC(=O)[C@H](CCC(N)=O)NC(=O)[C@H](CCCCN)NC(=O)[C@H](CCC(=O)O)NC(=O)[C@@H](NC(=O)[C@H](CCC(=O)O)NC(=O)[C@@H](NC(=O)[C@H](CCSC)NC(=O)[C@H](CCCCN)NC(=O)[C@H](CCCNC(=N)N)NC(=O)[C@H](CC(C)C)NC(=O)[C@H](CC(C)C)NC(=O)[C@H](Cc1ccc(O)cc1)NC(=O)[C@@H]1CCCN1C(=O)[C@@H]1CCCN1C(=O)[C@H](CC(C)C)NC(=O)[C@H](CC(=O)O)NC(=O)[C@@H](NC(=O)[C@H](CO)NC(=O)[C@@H](NC(=O)[C@@H]1CCCN1C(=O)[C@@H]1CCCN1C(=O)CNC(=O)[C@@H]1CCC(=O)N1)[C@@H](C)CC)[C@@H](C)CC)[C@@H](C)CC)[C@@H](C)CC)[C@@H](C)O)C(N)=O [compound 57]	> 100	> 100
